SMILES strings stand for the structures.

Sequences of proteins named here, by UniProt entry; tags and fusion partners are left off. A change or cut given only in a name is not applied to a line headed by its entry.
UniProt Q01727: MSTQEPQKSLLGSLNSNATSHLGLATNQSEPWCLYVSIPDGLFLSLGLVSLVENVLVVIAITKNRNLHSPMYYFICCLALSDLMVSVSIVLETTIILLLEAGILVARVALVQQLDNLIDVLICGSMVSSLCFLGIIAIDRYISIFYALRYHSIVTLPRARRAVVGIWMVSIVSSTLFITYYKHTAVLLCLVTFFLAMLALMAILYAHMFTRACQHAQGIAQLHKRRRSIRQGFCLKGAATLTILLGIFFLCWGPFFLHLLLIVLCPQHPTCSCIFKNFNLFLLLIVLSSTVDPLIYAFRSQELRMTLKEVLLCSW

The target in the experiment is Melanocyte-stimulating hormone receptor (Mus musculus, UniProt Q01727). The experiment in a line: Functional activity at the mouse melanocortin 1 receptor. The method in brief:
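HEK-293 cells stably expressing the mouse receptor (calcium phosphate transfection, G418 1 mg/mL), transfected with CRE/β-galactosidase reporter. Lysates read at OD405 with ONPG at 37 °C, normalized to protein and forskolin (10^-4 M) response. EC50 from curve fit, at least three independent experiments.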
A word on the EC50: it is the concentration at which the effect is half-maximal. Low readings indicate greater potency, high ones weaker potency. Regarding `CC(=O)N[C@@H](Cc1cnc[nH]1)C(=O)N[C@H](Cc1ccccc1)C(=O)N[C@@H](CCCNC(=N)N)C(=O)N[C@H](Cc1c[nH]c2ccccc12)C(N)=O`, a half-maximal response (EC50) required 0.0972 µM.

Regarding `CC(=O)N[C@@H](Cc1c[nH]cn1)C(=O)N[C@@H](Cc1ccccc1)C(=O)N[C@@H](CCCN=C(N)N)C(=O)N[C@H](Cc1c[nH]c2ccccc12)C(N)=O`, the EC50 turned out to be 14.5 µM.

With `CC(=O)N[C@@H](Cc1cnc[nH]1)C(=O)N[C@H](Cc1ccccc1)C(=O)N[C@@H](CCCN=C(N)N)C(=O)N[C@@H](Cc1c[nH]c2ccccc12)C(N)=O`, the concentration giving a half-maximal response (EC50) was found to be 0.0256 µM.

Consider `CC(=O)N[C@@H](Cc1c[nH]cn1)C(=O)N[C@@H](Cc1ccccc1)C(=O)N[C@@H](CCCN=C(N)N)C(=O)N[C@@H](Cc1c[nH]c2ccccc12)C(N)=O`, for which a half-maximal effect (EC50) was put at 7.69 µM.

(Values after ChEMBL document CHEMBL1134521, “Characterization of melanocortin NDP-MSH agonist peptide fragments at the mouse central and peripheral melanocortin receptors” (J Med Chem, 2001).)
